Nrf2 inh: inhibitors of Nrf2 signaling | A549 ARE-Fluc reporter, luciferase luminescence, 18-24 h | Potency, µM (series often up to 46 µM), without a hit: at the top dose activity change, negative = inhibition, actives largely listed as inhibitors | 360,000 tested, 2.1% active; note: potency is the fitted concentration of half-maximal effect; % is set by controls: 0 for no effect and ±100 for the full control effect; nearly all actives have a fitted effect of over 60% in size
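A549 ARE_Fluc cells, 5000/well, 5% FBS OPTI-MEM; compounds in dose-response, 18-24 h at 37 °C/5% CO2; CellTiter-Fluor viability read (Ex 405/Em 525), then BugLite luciferase luminescence = Nrf2 activity.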
A549 tox: kills or reduces viability of A549 cells in Nrf2 counter-screen. A549 ARE-Fluc cells, CellTiter-Fluor viability, 18-24 h. Potency, µM (series often up to 46 µM), without a hit: at the top dose activity change, negative = cytotoxicity, most hits filed as inhibitors. AID 504648. 390,000 tested, 0.16% active; note: potency is the fitted concentration of half-maximal effect; % is set by controls: 0 for no effect and ±100 for the full control effect
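A549 ARE_Fluc cells in 5% FBS OPTI-MEM were exposed to compounds in concentration-response for 18-24 h at 37 deg C. Viability was read by CellTiter-Fluor fluorescence (Ex 405/Em 525) after 30 min, before the luciferase read.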
ClpP mod: qHTS Assay for Activators of ClpP | Potency, µM (doses to about 57.5 µM), inactives show at the highest dose activity change, negative = active | purified B. subtilis ClpP, FRET peptide cleavage, 20 min | AID 651965, 2013 | 340,000 tested, 1.9% active; active = well fitted falling curve with a large enough effect; inconclusive = small, poorly fitted or top-dose-only effect; inactive = no such curve, though single readings can be large or run the other way; note: potency is the fitted concentration of half-maximal effect; the source files actives as falling curves though it sought activators and does not explain the sign; nearly all actives have a fitted effect of over 65% in size
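Purified B. subtilis ClpP, 10 microg/mL final in Tris/HCl pH8 with KCl, BSA, glycerol and Tween-20, cleaved an Abz/nitrotyrosine-quenched decapeptide. Fluorescence (ex 320, em 430) was read at 0 and 20 min at room temperature. Delta was normalized to 5.8 microM ADEP and DMSO/no-enzyme controls.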
IL2 activator: IL-2 activation; IL-2 activation reporter assay, cell-based qHTS; stimulated with anti-CD3/CD4/CD28 beads; in transgenic mouse T cells; AID 652025; activation, % (series mostly up to about 46 µM); 360,000 tested, 0.065% active; in the data active = activation above about 50%; inconclusive = mostly about 30% to 49%; note: 0% is about no effect
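Readout: EGFP and DsRed signals by fluorescent plate cytometry. Unstimulated transgenic mouse T cells received compound 60 min before antibody-bead stimulation, then incubated 18 h at 37 degrees C.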
Nrf2 ARE act: Nrf2 pathway activation | AREc32 ARE-luciferase reporter (MCF7-derived line), luminescence, 24 h | Potency, µM (doses to about 46.1 µM), inactives show at the highest dose activation, actives largely listed as activators | 410,000 tested, 0.31% active | AID 624171; note: potency is the fitted concentration of half-maximal effect; % of control where 0% means no effect; nearly all actives have a fitted effect of over 65% in size
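Cells of the AREc32 ARE-luciferase line are plated in OPTI-MEM containing 5% FBS and left overnight at 37 deg C. Compounds are pinned in, incubation continues 24 hr, and firefly luciferase signal is then measured.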
miR-21 reporter: miR-21 reporter, rising signal. 340,000 tested, under 10 active. Potency, µM (highest dose often 38.3 µM), for the others: at the highest dose reporter change, positive = more light. HeLa miR-21 FLuc reporter, luciferase, 48 h. AID 2288; active = well fitted rising curve with a large enough effect; inconclusive = small, poorly fitted or top-dose-only effect; inactive = no such curve, though single readings can be large or run the other way;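 further: % of control where 0% means no effect; miR-21 action dims this reporter so a rising signal means less miR-21 action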
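HeLa miR-21-FLuc reporter line, endogenous miR-21; 2000 cells/well in DMEM/10% FBS; compound titration up to ~40uM final, 48 h, 37 degree Celsius; luciferase detection reagent, 15 min lysis, CCD luminescence.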
Numbers without * were called inactive; ? = inconclusive; nt = no result. Hits are enriched below; roughly 3.7% of the tested compounds scored in any of these assays. Unless noted, calls come from the whole dose curve; as a rule, active = well fitted curve in the direction sought with a large enough effect; inconclusive = small, poorly fitted or top-dose-only effect, or another doubt; inactive = no such curve, though single readings can be large; an effect the other way counts as inactive or inconclusive.

1	COc1ccccc1CNC(=O)C1CCN(S(=O)(=O)c2c(C)noc2/C=C/c2cccs2)CC1
2	COc1ccc(CC(=O)N(Cc2ccccc2)c2ccc(C)cc2)cc1S(=O)(=O)N1CCOCC1
3	Cc1ccc(N(Cc2ccccc2)C(=O)c2ccc(C)c(S(=O)(=O)N3CCOCC3)c2)cc1
4	COc1ccc(NC(=O)c2c(C)nn(Cc3ccccc3)c2Cl)cc1S(=O)(=O)N1CCOCC1
5	CCN(C(=O)Cc1cccs1)c1nnc(-c2cc(OC)c(OC)c(OC)c2)s1
6	O=C(CCCSc1ccccc1)Nc1nc(-c2ccco2)c(-c2ccco2)s1
7	O=C(CCl)Nc1nc(-c2ccco2)c(-c2ccco2)s1
8	Cc1ccc(C(=O)Nc2nc(-c3ccco3)c(-c3ccco3)s2)o1
Compound	1	2	3	4	5	6	7	8
Nrf2 inh	-18%	?	15µM*	21µM*	-15%	-17%	-4%	-7%
A549 tox	-9%	-5%	-18%	-18%	-4%	-18%	-4%	-2%
ClpP mod	-11%	25µM*	0%	-1%	22µM*	?	-4%	?
IL2 activator	nt	0	-1	-1	-2	-1	2	2
Nrf2 ARE act	8%	3%	1%	1%	4%	13%	11µM*	1.3µM*
miR-21 reporter	-7%	nt	nt	12%	0%	-1%	-1%	nt

Nrf2 ARE act: hit marks shown above.
cpd | SMILES | IL2 activator | Nrf2 ARE act | miR-21 reporter
7 | O=C(CCl)Nc1nc(-c2ccco2)c(-c2ccco2)s1 | 2 | 11µM* | -1%
8 | Cc1ccc(C(=O)Nc2nc(-c3ccco3)c(-c3ccco3)s2)o1 | 2 | 1.3µM* | nt

Later entries
9	O=C(Nc1ccc(S(=O)(=O)C(F)F)cc1)c1ccc2c(=O)n3c(nc2c1)CCC3
10	COc1ccc(NC(=O)c2ccc3c(=O)n4c(nc3c2)CCCCC4)cc1
11	O=C(Nc1ccc(SC(F)F)cc1)c1ccc2c(=O)n3c(nc2c1)CCC3
12	CCCCC(=O)NC(c1ccccc1OC)c1ccc2cccnc2c1O (centres undefined)
13	CCCC(=O)NC(c1ccc(Cl)cc1Cl)c1ccc2cccnc2c1O (centres undefined)
14	CC(=O)NC(c1ccc2ccccc2c1)c1ccc2cccnc2c1O (centres undefined)
15	CC(C)CC(=O)NC(c1cccs1)c1ccc2cccnc2c1O (centres undefined)
16	CCCC(=O)NC(c1ccc(Cl)cc1)c1ccc2cccnc2c1O (centres undefined)
Compound	9	10	11	12	13	14	15	16
Nrf2 inh	15µM*	-3%	5.8µM*	21µM*	23µM*	15µM*	21µM*	?
A549 tox	-10%	-10%	?	-25%	-18%	-20%	?	-16%
ClpP mod	-3%	0%	3%	-1%	nt	nt	nt	nt
IL2 activator	1	-2	0	-4	1	-2	0	-5
Nrf2 ARE act	2%	2%	7%	0%	-1%	0%	4%	0%
miR-21 reporter	nt	-12%	nt	?	20%	26%	6%	20%

17	CCCCC(=O)NC(c1ccc(Cl)cc1)c1ccc2cccnc2c1O (centres undefined)
18	Cc1ccc(C(=O)c2c(N)c(C(=O)Nc3cccc(C(F)(F)F)c3)c3ccccn23)cc1
19	CCN1C(=O)c2ccccc2Sc2ccc(NC(=O)c3ccc(C)c(F)c3)cc21
20	c1ccc(P(c2ccccc2)c2cnc3ccccn23)cc1
21	CCN(CC)S(=O)(=O)c1cc(C(=O)OCC(=O)Nc2ccc(-c3nc4ccc(C)cc4s3)cc2)ccc1F
22	CC(C)Sc1nc2c(c(=O)[nH]c(=O)n2C)n1CCc1ccccc1
23	CCC(C)Sc1nc2c(c(=O)[nH]c(=O)n2C)n1CCc1ccccc1 (centres undefined)
24	C=C(C)CSc1nc2c(c(=O)[nH]c(=O)n2C)n1Cc1ccccc1
Compound	17	18	19	20	21	22	23	24
Nrf2 inh	7%	28%	nt	-2%	?	-12%	nt	5.8µM*
A549 tox	-5%	8%	-20%	-1%	2%	10%	2%	6%
ClpP mod	nt	-16%	-2%	nt	18µM*	18µM*	1%	-2%
IL2 activator	-1	nt	nt	nt	0	-1	-2	-4
Nrf2 ARE act	0%	-1%	1%	nt	-1%	0%	2%	2%
miR-21 reporter	nt	-11%	24%	nt	-25%	-7%	-8%	-12%

Compound profiles (already shown). Screens in order: Nrf2 inh | A549 tox | ClpP mod | IL2 activator | Nrf2 ARE act | miR-21 reporter
COc1ccccc1CNC(=O)C1CCN(S(=O)(=O)c2c(C)noc2/C=C/c2cccs2)CC1 is listed as -18% | -9% | -11% | nt | 8% | -7%
COc1ccc(NC(=O)c2ccc3c(=O)n4c(nc3c2)CCCCC4)cc1 is listed as -3% | -10% | 0% | -2 | 2% | -12%

Next records.
25	COc1cc2ncnc(N(C)Cc3cccs3)c2cc1-c1ccc2c(c1)OCO2
26	CCOC(=O)c1cc(C)n(CC2CCC(C(=O)Nc3cccc(C(C)=O)c3)CC2)c1C (centres undefined)
27	COc1cccc(/C=C2\SC(=S)N(C(C)C(=O)NC3C=CS(=O)(=O)C3)C2=O)c1 (centres undefined)
28	COc1ccc(/C=C2\SC(=S)N(C(C)C(=O)NC3C=CS(=O)(=O)C3)C2=O)cc1 (centres undefined)
29	COc1cccc(/C=C2\SC(=O)N(CC(=O)NC3C=CS(=O)(=O)C3)C2=O)c1 (centres undefined)
30	Cc1ccc(C(=O)N2CCc3cc(CNS(=O)(=O)c4cccs4)ccc32)cc1
31	C=CC[C@@H](CC(=O)N[C@H](CO)Cc1ccccc1)C(=O)N[C@H](COC(=O)[C@@H](CC=C)CC(=O)OC(C)(C)C)Cc1c[nH]c2ccccc12
32	C=CC[C@@H](CC(=O)N[C@@H](CO)Cc1ccccc1)C(=O)N[C@@H](COC(=O)[C@@H](CC=C)CC(=O)OC(C)(C)C)Cc1c[nH]c2ccccc12
Compound	25	26	27	28	29	30	31	32
Nrf2 inh	-10%	9%	2%	6%	10%	nt	21µM*	5%
A549 tox	8%	5%	3%	?	0%	-25%	12µM*	-15%
ClpP mod	nt	-3%	0%	1%	-3%	-2%	-4%	2%
IL2 activator	nt	nt	-1	-1	1	nt	2	0
Nrf2 ARE act	nt	1%	18µM*	?	16µM*	-1%	-4%	9%
miR-21 reporter	nt	-1%	4%	-10%	21%	11%	nt	nt

33	C=CCC[C@H](Cc1ccc(F)cc1)C(=O)OC[C@@H](Cc1c[nH]c2ccccc12)NC(=O)[C@@H](CC=C)CC(=O)N(CCO)Cc1ccccc1
34	Cc1ccc2onc(CC(=O)N3CCN(c4ccccc4)CC3)c2c1
35	COc1ccc(CNC(=O)C2CCN(S(=O)(=O)Cc3ccccc3)CC2)cc1
36	O=C(NC1CCN(Cc2ccccc2)CC1)c1cccc(S(=O)(=O)Nc2ccc(SC(F)F)cc2)c1
37	Cc1ccc(S(=O)(=O)Nc2cccc(C(=O)NC3CCN(Cc4ccccc4)CC3)c2)cc1F
38	CC1(C)COC(/C=C/c2cccc([N+](=O)[O-])c2)=N1
39	O=[N+]([O-])c1cccc(/C=C/c2ccccc2)c1
40	CCO/C=C1/C(=O)N(c2ccc(OC)cc2)C(=O)c2ccccc21
Compound	33	34	35	36	37	38	39	40
Nrf2 inh	9.2µM*	-3%	4%	16µM*	10µM*	?	nt	-9%
A549 tox	12µM*	6%	15%	?	?	?	nt	-4%
ClpP mod	-10%	1%	1%	1%	-4%	nt	1%	4%
IL2 activator	-1	nt	nt	0	-6	-1	nt	2
Nrf2 ARE act	-4%	3%	0%	0%	3%	13µM*	nt	0%
miR-21 reporter	nt	7%	-14%	nt	nt	?	nt	1%
